Test results published in patent publication US9201062B2, “Predicting toxicity of a compound over a range of concentrations” (CELLOMICS, INC., priority 2011, dated 2015).

Tested on: Reactive oxygen species (ROS) levels in cells
Assay: Normalized ROS response over a range of concentrations compared with toxicity thresholds (FIGS. 6A, 6B)
Conditions: range of concentrations up to 100 CMax; threshold = μ±(4×σ) of negative controls
Excerpt: Once imaging has been performed, automated image processing algorithms as are known in the art can be used in the imaging system to determine the measurements in the cell images.
The target i being evaluated was the normalized ROS response.
where μ is the mean of the normalized non-hepatotoxic compound values and σ is the standard deviation of the normalized non-hepatotoxic compound values.
As noted above, for ROS, the upper threshold may be all that is needed. […] The difficulty in compound toxicity measurement because of non-unidirectional response and/or because of incorrect EC50/IC50 calculation from a dose-response curve are avoided by establishing toxicity thresholds based on the negative controls and by flagging a compound as toxic only if its response goes beyond the determined thresholds at any concentration.
For each target, the minimal coefficient K of the deviation value from the mean of the non-hepatotoxic compound data can be calculated to include all the non-hepatotoxic compounds values between μ+K×σ and μ−K×σ values. These values are set respectively as the upper and lower toxicity thresholds for the target. […]
The normalized values from the hepatotoxic compounds (or compounds of interest) are compared with the threshold value determined above. The compound toxicity is determined by verifying whether the normalized value of the compound is outside the threshold value(s). […]

For `CN(CCOc1ccc(CC2SC(=O)NC2=O)cc1)c1ccccn1` (stereo not shown) [Rosiglitazone], the “normalized ROS response relative to upper and lower toxicity thresholds” value was “between the upper and lower thresholds values”.
